Test system: MDM2 SWIB
Format: binding, human
Details: library DMS-BM; bait MDM2 SWIB; prey TP53; peptide QETFSDLWKLLPENNV; columns = wild-type residues Q1-N15, rows = amino acid at that position

Sequence	DMS PSSM value (position-specific score of the amino acid at the position; each column sums to 1)
QETFSDLWKLLPENNV T3Y (QEYFSDLWKLLPENNV)	0.1455
QETFSDLWKLLPENNV W8A (QETFSDLAKLLPENNV)	0
QETFSDLWKLLPENNV W8D (QETFSDLDKLLPENNV)	0
QETFSDLWKLLPENNV W8E (QETFSDLEKLLPENNV)	0.07688
QETFSDLWKLLPENNV W8F (QETFSDLFKLLPENNV)	0
QETFSDLWKLLPENNV W8G (QETFSDLGKLLPENNV)	0
QETFSDLWKLLPENNV W8H (QETFSDLHKLLPENNV)	0
QETFSDLWKLLPENNV W8I (QETFSDLIKLLPENNV)	0
QETFSDLWKLLPENNV W8K (QETFSDLKKLLPENNV)	0
QETFSDLWKLLPENNV W8L (QETFSDLLKLLPENNV)	0.1247
QETFSDLWKLLPENNV W8M (QETFSDLMKLLPENNV)	0
QETFSDLWKLLPENNV W8N (QETFSDLNKLLPENNV)	0
QETFSDLWKLLPENNV W8P (QETFSDLPKLLPENNV)	0
QETFSDLWKLLPENNV W8Q (QETFSDLQKLLPENNV)	0
QETFSDLWKLLPENNV W8R (QETFSDLRKLLPENNV)	0.01146
QETFSDLWKLLPENNV W8S (QETFSDLSKLLPENNV)	0
QETFSDLWKLLPENNV W8T (QETFSDLTKLLPENNV)	0
QETFSDLWKLLPENNV W8V (QETFSDLVKLLPENNV)	0
QETFSDLWKLLPENNV W8W	0.7869
QETFSDLWKLLPENNV W8Y (QETFSDLYKLLPENNV)	0
